Article PMC5762261 (Archives of biochemistry and biophysics, 2017)

Test system: NC(=O)c1cccnc1
Assay: 14C-nicotinamide base exchange assay
Type: biochemical, human
Conditions: other: NAM varied, 1 mM p53K382Ac, 800 μM NAD+; pH 7.5; 37.0 °C

Substance: SIRT6 (Homo sapiens)
- Km: 1820 ± 500 µM
